Measurements reported in PMC7244497 (Scientific Reports, 2020).

The chains behind the UniProt entries cited, without tags or fusion partners.
UniProt P41143, whole entry, looked up: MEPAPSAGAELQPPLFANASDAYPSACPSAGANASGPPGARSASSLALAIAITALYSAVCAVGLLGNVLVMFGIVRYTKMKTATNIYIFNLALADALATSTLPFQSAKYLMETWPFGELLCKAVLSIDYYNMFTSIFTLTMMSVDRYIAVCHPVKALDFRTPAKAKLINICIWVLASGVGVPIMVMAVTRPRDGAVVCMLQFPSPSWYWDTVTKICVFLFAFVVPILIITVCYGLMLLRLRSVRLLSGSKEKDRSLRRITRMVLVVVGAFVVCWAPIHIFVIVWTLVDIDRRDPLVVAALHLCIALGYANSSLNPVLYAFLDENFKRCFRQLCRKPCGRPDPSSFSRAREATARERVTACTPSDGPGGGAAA

Key:
HA-hDOP receptor [1] = biological target: T1, HA-hDOP receptor (Homo sapiens, UniProt P41143); assay: Fluorescence-based membrane potential assay (GIRK channel activation); type: cell-based; conditions: AtT-20 cells stably expressing HA-hDOP receptor
HA-hDOP receptor [2] = biological target: T1, HA-hDOP receptor; assay: Western blot of DOP receptor phosphorylation at T361 and S363 with phosphosite-specific antibodies in HEK293 cells; conditions: 10^-9 to 10^-5 M for 10 min at 37 °C
HA-hDOP receptor [3] = biological target: T1, HA-hDOP receptor; assay: DOP receptor internalization (confocal microscopy and cell-surface ELISA) in HEK293 cells; conditions: 10 µM for 30 min at 37 °C

CO[C@]12CC[C@@]3(C[C@@H]1[C@](C)(O)C(C)(C)C)[C@H]1Cc4ccc(O)c5c4[C@@]3(CCN1)[C@H]2O5
Emax in % of DPDPE (HA-hDOP receptor [1]; GIRK channel activation): 56.3%
Emax, GIRK channel activation (HA-hDOP receptor [1]; membrane potential assay (Fig. 5 axis: RFU)): 15.3 ± 1.50
EC50 (HA-hDOP receptor [1]; read-out: EC50, GIRK channel activation, membrane potential assay, mean ± SEM, three independent experiments): 43.8 nM
Agonist-induced DOP receptor phosphorylation at T361 and S363 (HA-hDOP receptor [2]): Robust phosphorylation
Agonist-induced DOP receptor internalization (HA-hDOP receptor [3]): receptor internalization were detectable
